Experimental data from patent publication US20250326765A1, “PDE4B INHIBITOR AND USE THEREOF” (XIZANG HAISCO PHARMACEUTICAL CO., LTD., priority 2022, published 2025).

The chains behind the UniProt entries cited, without tags or fusion partners. Residues count along the entry.
UniProt Q08499, 303-809 limits assumed: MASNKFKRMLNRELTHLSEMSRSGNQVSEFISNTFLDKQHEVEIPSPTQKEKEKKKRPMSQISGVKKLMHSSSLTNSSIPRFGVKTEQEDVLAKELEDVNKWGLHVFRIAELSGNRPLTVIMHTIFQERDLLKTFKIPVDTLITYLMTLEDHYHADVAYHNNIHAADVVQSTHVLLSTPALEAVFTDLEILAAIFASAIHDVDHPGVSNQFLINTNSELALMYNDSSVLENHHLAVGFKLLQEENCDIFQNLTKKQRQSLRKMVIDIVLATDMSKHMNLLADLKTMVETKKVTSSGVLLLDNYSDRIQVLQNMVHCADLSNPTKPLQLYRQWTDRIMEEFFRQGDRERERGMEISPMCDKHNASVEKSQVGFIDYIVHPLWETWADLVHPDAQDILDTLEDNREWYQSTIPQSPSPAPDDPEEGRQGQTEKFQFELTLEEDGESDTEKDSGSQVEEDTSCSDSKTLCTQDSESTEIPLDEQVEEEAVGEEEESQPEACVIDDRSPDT
UniProt Q12809, whole entry: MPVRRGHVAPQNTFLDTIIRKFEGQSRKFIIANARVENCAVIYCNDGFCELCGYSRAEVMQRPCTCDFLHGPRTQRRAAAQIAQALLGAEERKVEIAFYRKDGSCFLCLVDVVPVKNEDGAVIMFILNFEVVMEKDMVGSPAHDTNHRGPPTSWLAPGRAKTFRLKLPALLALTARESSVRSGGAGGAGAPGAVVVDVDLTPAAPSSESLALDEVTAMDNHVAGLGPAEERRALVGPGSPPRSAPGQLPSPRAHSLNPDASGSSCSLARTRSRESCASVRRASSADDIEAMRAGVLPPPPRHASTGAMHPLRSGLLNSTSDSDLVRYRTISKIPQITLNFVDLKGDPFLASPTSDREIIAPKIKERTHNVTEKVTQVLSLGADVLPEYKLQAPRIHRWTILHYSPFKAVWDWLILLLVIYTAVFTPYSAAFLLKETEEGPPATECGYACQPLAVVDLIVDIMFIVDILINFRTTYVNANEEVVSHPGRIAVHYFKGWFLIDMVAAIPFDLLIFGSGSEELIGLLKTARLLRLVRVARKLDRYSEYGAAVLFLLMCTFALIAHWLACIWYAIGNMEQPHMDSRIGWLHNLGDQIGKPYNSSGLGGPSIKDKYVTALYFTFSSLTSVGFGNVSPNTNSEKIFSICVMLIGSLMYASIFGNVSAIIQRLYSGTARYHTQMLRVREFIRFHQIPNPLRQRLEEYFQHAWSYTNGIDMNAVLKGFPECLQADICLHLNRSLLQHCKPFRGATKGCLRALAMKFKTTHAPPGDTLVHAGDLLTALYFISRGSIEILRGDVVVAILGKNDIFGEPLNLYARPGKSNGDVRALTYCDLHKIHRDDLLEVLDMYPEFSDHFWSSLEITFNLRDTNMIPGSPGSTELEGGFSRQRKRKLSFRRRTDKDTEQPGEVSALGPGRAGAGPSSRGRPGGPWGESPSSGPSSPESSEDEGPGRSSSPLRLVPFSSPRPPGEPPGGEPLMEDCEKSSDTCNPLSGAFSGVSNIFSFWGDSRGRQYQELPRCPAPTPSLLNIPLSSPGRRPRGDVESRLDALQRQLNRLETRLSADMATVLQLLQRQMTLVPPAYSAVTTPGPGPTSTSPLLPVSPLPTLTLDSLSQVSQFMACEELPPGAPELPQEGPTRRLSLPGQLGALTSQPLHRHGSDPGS
UniProt Q07343, whole entry: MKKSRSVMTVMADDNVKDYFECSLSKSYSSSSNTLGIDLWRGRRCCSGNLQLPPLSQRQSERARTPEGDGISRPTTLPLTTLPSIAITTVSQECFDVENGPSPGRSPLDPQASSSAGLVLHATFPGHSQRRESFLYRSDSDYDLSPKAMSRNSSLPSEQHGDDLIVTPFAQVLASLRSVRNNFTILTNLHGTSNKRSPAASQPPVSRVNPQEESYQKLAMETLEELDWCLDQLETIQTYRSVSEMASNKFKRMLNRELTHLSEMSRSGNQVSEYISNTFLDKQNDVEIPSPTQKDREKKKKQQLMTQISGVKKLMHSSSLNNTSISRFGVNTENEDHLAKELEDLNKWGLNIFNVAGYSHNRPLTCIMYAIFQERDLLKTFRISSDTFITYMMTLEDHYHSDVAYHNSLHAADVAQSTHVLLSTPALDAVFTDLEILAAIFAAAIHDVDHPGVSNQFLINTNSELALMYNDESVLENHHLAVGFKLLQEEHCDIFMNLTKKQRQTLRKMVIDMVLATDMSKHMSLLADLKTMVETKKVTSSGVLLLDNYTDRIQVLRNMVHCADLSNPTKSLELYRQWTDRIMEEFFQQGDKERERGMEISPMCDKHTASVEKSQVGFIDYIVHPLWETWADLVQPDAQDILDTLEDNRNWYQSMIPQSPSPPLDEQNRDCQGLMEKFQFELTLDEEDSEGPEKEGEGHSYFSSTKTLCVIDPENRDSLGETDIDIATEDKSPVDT
UniProt Q07343, 1-564 isoform 2: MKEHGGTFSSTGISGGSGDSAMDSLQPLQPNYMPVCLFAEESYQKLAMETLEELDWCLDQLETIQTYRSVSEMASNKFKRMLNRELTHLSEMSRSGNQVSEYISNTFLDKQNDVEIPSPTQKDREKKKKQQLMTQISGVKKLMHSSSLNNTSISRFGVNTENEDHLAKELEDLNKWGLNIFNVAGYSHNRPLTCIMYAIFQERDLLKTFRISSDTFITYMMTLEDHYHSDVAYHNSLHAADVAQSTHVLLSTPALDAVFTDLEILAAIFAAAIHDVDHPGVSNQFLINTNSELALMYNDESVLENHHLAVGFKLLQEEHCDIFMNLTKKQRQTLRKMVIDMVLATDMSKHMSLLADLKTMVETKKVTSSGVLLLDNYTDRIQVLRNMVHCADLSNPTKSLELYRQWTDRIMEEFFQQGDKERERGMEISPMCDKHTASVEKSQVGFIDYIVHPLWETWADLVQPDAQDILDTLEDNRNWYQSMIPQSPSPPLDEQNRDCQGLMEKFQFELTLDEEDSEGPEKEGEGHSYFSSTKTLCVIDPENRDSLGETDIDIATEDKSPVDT

Key:
PDE4D2 = PDE4D2 (Homo sapiens, UniProt Q08499); assay: Effect of compounds on PDE4D2 activity (fluorescence polarization kit); details: read-out: PDE4D2 IC50; class symbols
Description: The effect of compounds on PDE4D2 activity was detected by a fluorescence polarization kit (BPS Bioscience, Catalog #60345). During the reaction, 12.5 μL of 0.272 ng/well of an enzyme (final concentration: 0.068 ng/well) and 12.5 μL of the compound diluted in a gradient manner (DMSO concentration: 4%) were first pre-incubated at room temperature for 15 minutes, the same volume of the enzyme at the same concentration and 12.5 μL of PDE buffer containing 4% DMSO were added to the positive control well, and 25 μL of PDE buffer containing 2% DMSO was added to the negative control well. After completion, 25 μL of […] FAM-Cyclic-3′,5′-AMP (final concentration: […]) was added to each well, fully mixed, and then incubated at room temperature with slow shaking for 30 minutes. The Binding Agent was diluted with the Binding Agent Diluent (cAMP) at a ratio of 1:100 for later use, 100 μl/well of the Binding Agent dilution was taken and added to all wells of the test plate and incubated at room temperature with slow shaking for 1 hour.
After the incubation was complete, BMG LRBTECH microplate reader was used for FP detection, with Excitation at 485 nm and Emission at 520 nm. FP was usually represented by mP value.
[formula] • I∥ (S520): fluorescence intensity in parallel direction • I⊥ (P520): fluorescence intensity in perpendicular direction • G: G factor=1
(§1) [formula] • mP(sample): mP of the test compound in a reaction well • mP(negative control): mP in the negative control well • mP(positive control): mP in the positive control well
(§2) According to the calculated inhibition rate at each concentration, the IC50 value of each compound was calculated by GraphPad Prism 8 software.

[1] = target: hERG potassium ion channel (Homo sapiens, UniProt Q12809); assay: Test for hERG potassium ion channel (manual patch-clamp, CHO cells); details: read-out: IC50, inhibition of hERG potassium channel current; CHO cells stably expressing hERG, whole cell patch-clamp
Excerpt: Experimental Platform: Electrophysiological Manual Patch-Clamp System
Cell line: Chinese hamster ovary (CHO) cell line stably expressing hERG potassium ion channel
Experimental method: CHO (Chinese Hamster Ovary) cells stably expressing hERG potassium channel were subjected to a whole cell patch-clamp technique to record the hERG potassium channel current at room temperature. The glass microelectrode was made of a glass electrode blank (BF150-86-10, Sutter) by a puller. The tip resistance after filling the liquid in the electrode was about 2-5 MQ. The glass microelectrode can be connected to the patch-clamp amplifier by inserting the glass microelectrode into an amplifier probe. The clamping voltage and data recording were controlled and recorded by the pClamp 10 software through a computer. The sampling frequency was 10 kHz, and the filtering frequency was 2 kHz. […]
Data processing: Data analysis processing was carried out by using pClamp 10, GraphPad Prism 5, and Excel software. The degree of inhibition on the hERG potassium current (peak value of hERG tail current induced at −50 mV) at different compound concentrations was calculated by the following formula: […]
Compound IC50 was calculated using GraphPad Prism 5 software by fitting according to the following equation: […]

PDE4B1 = PDE4B1 (Homo sapiens, UniProt Q07343); assay: Effect of compounds on PDE4B1 activity (IMAP fluorescence polarization kit); details: read-out: PDE4B1 IC50; class symbols
PDE4B2 = PDE4B2 (Homo sapiens, UniProt Q07343); assay: Effect of compounds on PDE4B2 activity (fluorescence polarization kit); details: read-out: PDE4B2 IC50; class symbols
Description: The effect of compounds on PDE4B2 activity was detected by a fluorescence polarization kit (BPS Bioscience, Catalog #60343). According to the instructions of the kit, FAM-Cyclic-3′,5′-AMP at a final concentration of […], 1 ng/well of PDE4B2 (PDE buffer was added to the negative control well), and a compound diluted in a gradient manner (PDE buffer containing 10% DMSO was added to the positive control well) were added to each well, fully mixed, and then reacted at room temperature for 1 h. The Binding Agent was diluted with the Binding Agent Diluent (cAMP) at a ratio of 1:100 for later use, the Binding Agent dilution was taken and added to the test plate at 50 μl/well and incubated at room temperature with slow shaking for 20 minutes. After the incubation was complete, Envision was used for FP detection, with Excitation at 480 nm and Emission at 535 nm. FP was usually represented by mP value.
[formula] • I∥ (S535): fluorescence intensity in parallel direction • I⊥ (P535): fluorescence intensity in perpendicular direction • G: G factor=1
as §1, §2

[2] = tested on: release of tumor necrosis factor-α (TNF-α) from human peripheral blood mononuclear cells induced by lipopolysaccharide (LPS); assay: Inhibition of LPS-induced TNF-α release from human peripheral blood mononuclear cells in vitro; details: hPBMC, 100 ng/mL LPS, 4 h
Description: Normal human peripheral blood which was anticoagulated (citric acid anticoagulation) was collected, and hPBMCs were prepared by Ficoll-Paque PLUS (Cytiva, Cat #17144002, density 1.077 g/mL). The concentration of hPBMC cells was adjusted to 0.25×10^6 cells/mL with RPMI1640 medium and inoculated into a 96-well plate in an amount of 50000 cells per well. Subsequently, different concentrations of drugs were added for pre-incubation for 1 h (the DMSO final concentration was 0.1%, and the positive and negative control wells had the same volume of RPMI1640 containing 0.1% DMSO). After the pre-incubation was complete, 100 ng/mL LPS (SIGMA, L2630) was added to the compound and positive control wells, and the negative control well had the same volume of RPMI1640 containing 0.1% DMSO. Incubation was carried out for 4 h in an incubator at 37° C. and 5% CO2. The cell supernatant was collected, and the content of TNF-α in the supernatant sample was detected by human TNF-α Elisa quantitative test kit (Sino Biological, Cat #KIT10602). The IC50 value was calculated using GraphPad Prism software.

[3] = Pharmacokinetic test in mice
Description: 5.1 Experimental animals: Male ICR mice, 20-25 g, 6 mice/compound. Purchased from Chengdu Ddossy Experimental Animals Co., Ltd.
5.2 Experimental design: On the day of the experiment, 42 ICR mice were randomly grouped according to their body weights. The animals were fasted with water available for 12-14 h one day before administration and fed 4 h after administration.
Before and after administration, 0.06 mL of blood was taken from the orbit under isoflurane anesthesia and placed in an EDTAK2 centrifuge tube for centrifugation at 5000 rpm at 4-C for 10 min, followed by plasma collection. The blood collection time points for the intravenous group and intragastric group were both 0 m, 5 mi, 15 mi, 30 mi, 1 h, 2 h, 4 h, 6 h, 8 h, and 24 h. Before analysis and detection, all the samples were stored at −80° C., and the samples were subjected to quantitative analysis using LC-MS/MS.

IC50 (PDE4B1) [nM]	Structure (SMILES)	IC50 (PDE4D2) [nM]	IC50 [1] [nM]	IC50 (PDE4B2) [nM]	Max inhibition (%) [2] [%]	IC50 ([2]; read-out: Re IC50 (nM) (relative IC50), TNF-α induced by LPS, class symbols)	F ([3]; i.g. (10 mg/kg)) [%]	AUC0-t ([3]; plasma, i.g. (10 mg/kg)) [ng·h/mL]	T1/2 ([3]; plasma, i.g. (10 mg/kg)) [h]	AUC0-t ([3]; plasma, i.v. (5 mg/kg)) [ng·h/mL]	CL ([3]; plasma, i.v. (5 mg/kg)) [mL/min/kg]	T1/2 ([3]; plasma, i.v. (5 mg/kg)) [h]	Vdss ([3]; plasma, i.v. (5 mg/kg)) [L/kg]
< 10	[O-][S@+]1CCc2nc(N3CC4C=C(c5ccc(Cl)cc5)CC4C3)nc(NC3(CO)CCC3)c21 (single isomer, unassigned)	< 10	> 20000	–	–	–	–	–	–	–	–	–	–
–	CC#Cc1cnc2c(c1)OCC1CN(c3nc4c(c(NC5(CO)CCC5)n3)[S@+]([O-])CC4)CCN21 (single isomer, unassigned) [Compound 80-1]	10 to 50	18700	< 10	70.26	< 10	≥98	35989 ± 3265	2.67 ± 0.62	6156 ± 249	6.34 ± 0.27	1.78 ± 0.17	0.968 ± 0.076
